From ChEMBL document CHEMBL1128860, “5-O-Carboxymethyl piperazide derivatives of serotonin: a new class of potent and selective 5-HT1D receptor agonists” (Bioorg Med Chem Lett, 1995)

Sequences of proteins named here, by UniProt entry; tags and fusion partners are left off.
UniProt P08908, whole entry: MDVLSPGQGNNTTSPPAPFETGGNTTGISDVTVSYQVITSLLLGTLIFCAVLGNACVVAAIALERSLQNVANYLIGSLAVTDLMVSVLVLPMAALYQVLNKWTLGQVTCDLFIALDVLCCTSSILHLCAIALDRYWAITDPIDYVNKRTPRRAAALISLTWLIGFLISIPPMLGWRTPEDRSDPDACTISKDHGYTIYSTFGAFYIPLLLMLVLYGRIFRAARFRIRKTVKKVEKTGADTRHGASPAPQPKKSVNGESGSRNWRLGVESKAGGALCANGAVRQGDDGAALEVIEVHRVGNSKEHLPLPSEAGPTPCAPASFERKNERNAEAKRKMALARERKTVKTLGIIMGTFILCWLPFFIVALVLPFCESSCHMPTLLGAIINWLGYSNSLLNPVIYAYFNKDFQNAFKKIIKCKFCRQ

Experiments:
[1] = molecular target: T1, 5-hydroxytryptamine receptor 1A (Homo sapiens, UniProt P08908); assay: Compound was tested for its ability to inhibit forskolin-stimulated activity of adenylate cyclase coupled to human 5-HT 1A receptor in HeLa cells; value ranges from 50-550; assay type: functional, cell-based
[2] = molecular target: T1, 5-hydroxytryptamine receptor 1A; assay: Binding affinity towards cloned human 5-hydroxy tryptamine 1A (5-HT1A) receptor was determined

NCCc1c[nH]c2ccc(OCC(=O)N3CCN(c4ccccc4)CC3)cc12
EC50 [1]: 50 nM | Ki [2]: 11.4 nM
